Sampled rows, rich in hits. Any-hit rate of the full collection: about 2.2%.
Nrf2 ARE act – Nrf2 pathway activation | AREc32 ARE-luciferase reporter (MCF7-derived line), luminescence, 24 h | Potency, µM (doses to about 46.1 µM), inactives show at the highest dose activation, actives largely listed as activators | hit rate 0.31% among 410,000 | AID 624171; further: potency means the concentration at half of the fitted maximal effect; % of control where 0% means no effect; nearly all actives have a fitted effect of over 65% in size
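Luciferase luminescence (Steady-Glo, 30 min at room temperature) served as the read-out of ARE activation in AREc32 cells treated with compounds for 24 hr at 37 deg C.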
Nrf2 block – blocks Nrf2 signaling. A549 ARE-Fluc reporter, luciferase luminescence, 18-24 h. hit rate 2.1% among 360,000. Potency, µM (doses to about 46 µM), for inactives: at the highest dose activity change, negative = inhibition, hits mostly inhibitors; further: potency means the concentration at half of the fitted maximal effect; on the % scale 0 is the no-effect control and ±100 the full control effect; nearly all actives have a fitted effect of over 60% in size
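Two sequential reads on A549 ARE_Fluc cells exposed to compound for 18-24 h: a CellTiter-Fluor fluorescence read for viability, then a luciferase luminescence read for Nrf2/ARE activity.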
A549 tox-1 – kills or reduces viability of A549 cells in Nrf2 counter-screen; A549 ARE-Fluc cells, CellTiter-Fluor viability, 18-24 h; Potency, µM (titrated, usually from 46 µM), for inactives: at the highest dose activity change, negative = cytotoxicity, most hits filed as inhibitors; hit rate 0.16% among 390,000; further: potency means the concentration at half of the fitted maximal effect; on the % scale 0 is the no-effect control and ±100 the full control effect
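A549 ARE-Fluc cells in 5% FBS OPTI-MEM, 5000 cells/well, rested 2 h then exposed to compounds in concentration-response for 18-24 h at 37 °C. Viability by CellTiter-Fluor fluorescence (Ex 405/Em 525) after 30 min; luciferase luminescence (BugLite, 15 min, RT) read afterwards.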
PI4K2A inh – PI4K2A (human) kinase inhibition; hit rate 0.13% among 420,000; purified PI4K2A, ADP-Glo luminescence, 1 h; stronger effect = lower value; activity change, negative = inhibition, % at 76.9 µM; Q9BTU6; in the data active means activity change below about -50%; inconclusive means mostly about -30% to -49%;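 further: -100% = wells without enzyme as full effect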
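In this quantitative HTS, ADP production by PI4K2A was quantified luminescently after 1 h at ambient temperature; 100 microM adenosine served as plate-quality control.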
miR-21 reporter – miR-21 reporter, rising signal | AID 2288 | HeLa miR-21 FLuc reporter, luciferase, 48 h | 340,000 tested, under 10 active | Potency, µM (doses to about 38.3 µM), for inactives: at the top dose reporter change, positive = more light; active = well fitted rising curve with a large enough effect; inconclusive = small, poorly fitted or top-dose-only effect; inactive = no such curve, though single readings can be large or run the other way;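 note: % of control where 0% means no effect; miR-21 action dims this reporter so a rising signal means less miR-21 action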
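HeLa miR-21-FLuc reporter line, endogenous miR-21; 2000 cells/well in DMEM/10% FBS; compound titration up to ~40uM final, 48 h, 37 degree Celsius; luciferase detection reagent, 15 min lysis, CCD luminescence.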
GALK inh – galactokinase (human) inhibition; P51570; Purified GALK, Kinase-Glo residual ATP luminescence; Potency, µM (highest dose often 57.5 µM), for the others: at the top dose activity change, negative = inhibition, hits mostly inhibitors; hit rate 0.007% among 270,000; further: potency means the concentration at half of the fitted maximal effect; on the % scale 0 is the no-effect control and ±100 the full control effect
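5 nM enzyme, 35 uM ATP, 100 uM galactose, 20 mM HEPES pH8.0, 5 mM MgCl2; 1 h RT; residual ATP by Kinase-Glo Plus luminescence, qHTS format.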
FLuc enzyme inh – firefly luciferase inhibition, Nrf2 hit validation; hit rate 4% among 1,400; shares compounds with Nrf2 block; purified firefly luciferase, luminescence inhibition; Potency, µM (highest dose often 57.5 µM), for the others: at the highest dose activity change, negative = inhibition, usual class: inhibitors; further: potency means the concentration at half of the fitted maximal effect; on the % scale 0 is the no-effect control and ±100 the full control effect; nearly all actives have a fitted effect of over 65% in size
A549 tox-2 – A549 cytotoxicity, Nrf2 inhibitor counterscreen. shares compounds with Nrf2 block. A549 ARE-Fluc cells, cytotoxicity counterscreen. Potency, µM (series often up to 46.1 µM), for the others: top-dose activity change, negative = cytotoxicity, actives largely listed as inhibitors. hit rate 2% among 1,400. AID 720523;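 further: potency means the concentration at half of the fitted maximal effect; cells exposed to compounds for 18 to 24 hours; on the % scale 0 is the no-effect control and ±100 the full control effect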
ARE-Fluc inh – Nrf2 inhibition confirmed, A549 ARE-luciferase. shares compounds with Nrf2 block. A549 ARE-firefly luciferase reporter, luminescence. Potency, µM (series often up to 46.1 µM), without a hit: at the top dose activity change, negative = inhibition, actives largely listed as inhibitors. hit rate 74% among 1,400; further: potency means the concentration at half of the fitted maximal effect; on the % scale 0 is the no-effect control and ±100 the full control effect; nearly all actives have a fitted effect of over 65% in size
An asterisk follows results filed as active; ? = inconclusive; . = no result. Unless noted, the call rests on the fitted dose curve; in most records, active means well fitted curve in the direction sought with a large enough effect; inconclusive means small, poorly fitted or top-dose-only effect, or another doubt; inactive means no such curve, though single readings can be large; an effect the other way counts as inactive or inconclusive.

Assay codes – A = Nrf2 ARE act; B = Nrf2 block; C = A549 tox-1; D = PI4K2A inh; E = miR-21 reporter; F = GALK inh; G = FLuc enzyme inh; H = A549 tox-2; I = ARE-Fluc inh
(1) COc1ccccc1NS(=O)(=O)c1cccc(C(=O)NC2CCN(Cc3ccccc3)CC2)c1
  A: 2.3%; B: 2.31µM*; C: ?; D: -4.5; E: .; F: .; G: -0.8%; H: -19.5%; I: ?

(2) COc1ccc(CNc2ncnc3c2[nH]c2ccccc23)cc1
  A: 8.2%; B: 4.61µM*; C: -19.2%; D: -1.6; E: ?; F: 7.7%; G: ?; H: -19.8%; I: 5.17µM*

(3) COc1ccc(CCn2cnc3c([nH]c4ccccc43)c2=O)cc1
  A: -0.4%; B: 16.7%; C: 4.4%; D: 2.6; E: -13.7%; F: -1.6%; G: .; H: .; I: .

(4) O=C(NC1CCCCC1)c1ccc2ccccc2c1
  A: 4.2%; B: .; C: .; D: 9.0; E: .; F: .; G: .; H: .; I: .

(5) Cc1cc2ccccc2c[n+]1C1CCCCC1
  A: .; B: .; C: .; D: .; E: .; F: .; G: -0.4%; H: -7.9%; I: 1.3µM*

(6) CCCCCCCCNc1ncnc2ccccc12
  A: 3.8%; B: 5.8µM*; C: ?; D: 2.9; E: 23.4%; F: 0.1%; G: -0.5%; H: -2.3%; I: 7.31µM*

(7) COc1ccc2c(c1)CCc1c(C(=O)Nc3c(C)nn(Cc4ccc(Cl)cc4)c3C)noc1-2
  A: 0.0%; B: -12.9%; C: -1.7%; D: 0.1; E: 19.1%; F: .; G: .; H: .; I: .

(8) COc1ccc2c(c1)CCc1c(C(=O)Nc3c(C)nn(Cc4ccc(Cl)c(Cl)c4)c3C)noc1-2
  A: -1.0%; B: 4.61µM*; C: -6.3%; D: -3.6; E: -8.5%; F: .; G: -0.4%; H: -9.0%; I: 9.2µM*

(9) Cc1nc2ccc(C(=O)N3CCN(C(=O)C(Cl)Cl)CC3)cc2n1C1CCCC1
  A: .; B: .; C: .; D: -0.5; E: .; F: .; G: .; H: .; I: .

(10) Cn1cccc1C(=O)NC(=O)COC(=O)CNC(=O)c1ccc(Cl)cc1Cl
  A: -1.1%; B: 2.59µM*; C: 1.8%; D: -3.8; E: 0.6%; F: 0.0%; G: ?; H: 2.6%; I: 7.31µM*

(11) CN(Cc1ccc(Cl)cc1)C(=O)c1ccc(S(=O)(=O)NCc2ccco2)cc1
  A: -0.1%; B: 9.2µM*; C: -12.1%; D: -7.8; E: .; F: .; G: -0.1%; H: -0.3%; I: 6.8%

(12) CC1(C)OC[C@@H]2O[C@@]3(C(=O)O)OC(C)(C)O[C@H]3[C@@H]2O1
  A: .; B: .; C: .; D: 1.2; E: .; F: .; G: .; H: .; I: .

(13) Cc1ccccc1CS(=O)(=O)Cc1ccc(C(=O)Nc2ccccc2C)o1
  A: .; B: .; C: .; D: 2.5; E: .; F: .; G: .; H: .; I: .

(14) COc1cc(C(=O)NCc2cccnc2)ccc1OCC(=O)Nc1cccc(C(F)(F)F)c1
  A: 3.4%; B: 6.51µM*; C: 2.4%; D: -0.2; E: .; F: .; G: 2.0%; H: -8.4%; I: 16.4µM*

(15) CCOc1ccc(NC(=O)COc2ccc(C(=O)NCc3cccnc3)cc2OC)cc1
  A: -0.2%; B: -20.3%; C: -3.9%; D: 1.5; E: .; F: .; G: .; H: .; I: .

(16) Cc1csc(C)[n+]1CCC1CCCCC1
  A: .; B: .; C: .; D: .; E: .; F: .; G: 3.6%; H: -7.9%; I: 14.6µM*

(17) CCOC(=O)N1CCN(C(=O)C[C@H]2C[C@@]3(C(=O)OC)C(=C[C@H](C4CCCC4)O[C@@H]3C)N(Cc3ccc(Cl)cc3Cl)C2=O)CC1
  A: .; B: .; C: .; D: -2.2; E: .; F: .; G: .; H: .; I: .

(18) CC1CCCC=CC2CC(OC(=O)CN(C)C)CC2C(O)C=CC(=O)O1 (stereo unspecified)
  A: -0.9%; B: 0.206µM*; C: ?; D: 8.8; E: .; F: .; G: 1.4%; H: ?; I: 0.411µM*

(19) CCOC(=O)N1CCc2c(sc(NC(=O)c3ccc(S(=O)(=O)N4CCCC4)cc3)c2C#N)C1
  A: 0.9%; B: 7.31µM*; C: -28.0%; D: 3.9; E: -6.5%; F: -3.6%; G: -28.1%; H: -29.3%; I: 7.31µM*

(20) CCOC(=O)Cn1cc(CN2CCS(=O)(=O)N(Cc3ccc(OC)cc3)C(C(=O)OC)C2)nn1 (stereo unspecified)
  A: .; B: .; C: .; D: -5.6; E: .; F: .; G: .; H: .; I: .

(21) Cc1cccc(N2CCN(C(=O)c3cc(S(=O)(=O)N(C)C)ccc3Cl)CC2)c1C
  A: .; B: .; C: .; D: 0.7; E: .; F: .; G: .; H: .; I: .

Single records, as listed above. Screens in order: Nrf2 ARE act, Nrf2 block, A549 tox-1, PI4K2A inh, miR-21 reporter, GALK inh, FLuc enzyme inh, A549 tox-2, ARE-Fluc inh
Shown for Cc1cccc(N2CCN(C(=O)c3cc(S(=O)(=O)N(C)C)ccc3Cl)CC2)c1C → ., ., ., 0.7, ., ., ., ., .
Shown for Cn1cccc1C(=O)NC(=O)COC(=O)CNC(=O)c1ccc(Cl)cc1Cl → -1.1%, 2.59µM*, 1.8%, -3.8, 0.6%, 0.0%, ?, 2.6%, 7.31µM*

Screens (PubChem)
